The target in this assay is recombinant hMAO-A (Homo sapiens, UniProt P21397). In kind it is biochemical. The note with it: mean ± SEM (n = 3); 100 µM highest concentration tested.

The chains behind the UniProt entries cited, without tags or fusion partners.
UniProt P21397, whole entry: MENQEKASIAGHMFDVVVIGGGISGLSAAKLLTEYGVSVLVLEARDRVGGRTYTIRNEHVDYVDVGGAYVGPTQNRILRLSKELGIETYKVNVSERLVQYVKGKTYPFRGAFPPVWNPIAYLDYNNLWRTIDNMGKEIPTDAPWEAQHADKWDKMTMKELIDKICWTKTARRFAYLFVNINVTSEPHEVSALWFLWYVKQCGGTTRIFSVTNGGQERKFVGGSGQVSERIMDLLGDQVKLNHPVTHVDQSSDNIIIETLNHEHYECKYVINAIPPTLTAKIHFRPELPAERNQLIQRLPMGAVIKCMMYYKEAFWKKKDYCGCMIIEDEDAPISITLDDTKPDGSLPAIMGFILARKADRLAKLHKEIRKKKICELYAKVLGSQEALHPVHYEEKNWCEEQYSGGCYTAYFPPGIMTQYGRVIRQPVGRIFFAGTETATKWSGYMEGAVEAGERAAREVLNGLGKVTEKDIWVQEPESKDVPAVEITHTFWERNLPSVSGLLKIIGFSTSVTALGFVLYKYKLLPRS

Turning to `CC(C)NNC(=O)c1ccncc1` [Iproniazid, reference compound], the IC50 worked out at 6.7 ± 0.8 µM.

What is called IC50 is the concentration that inhibits the measured activity by half.

The values above are taken from paper PMC6407579, “New flavonoid – N,N-dibenzyl(N-methyl)amine hybrids: Multi-target-directed agents for Alzheimer´s disease endowed with neurogenic properties” (Journal of Enzyme Inhibition and Medicinal Chemistry, 2019).
